{
  "sequences": {"note": "Protein sequences, listed by entry. Tags and fused reporters are not part of them.", "UniProt Q86W56, whole entry": "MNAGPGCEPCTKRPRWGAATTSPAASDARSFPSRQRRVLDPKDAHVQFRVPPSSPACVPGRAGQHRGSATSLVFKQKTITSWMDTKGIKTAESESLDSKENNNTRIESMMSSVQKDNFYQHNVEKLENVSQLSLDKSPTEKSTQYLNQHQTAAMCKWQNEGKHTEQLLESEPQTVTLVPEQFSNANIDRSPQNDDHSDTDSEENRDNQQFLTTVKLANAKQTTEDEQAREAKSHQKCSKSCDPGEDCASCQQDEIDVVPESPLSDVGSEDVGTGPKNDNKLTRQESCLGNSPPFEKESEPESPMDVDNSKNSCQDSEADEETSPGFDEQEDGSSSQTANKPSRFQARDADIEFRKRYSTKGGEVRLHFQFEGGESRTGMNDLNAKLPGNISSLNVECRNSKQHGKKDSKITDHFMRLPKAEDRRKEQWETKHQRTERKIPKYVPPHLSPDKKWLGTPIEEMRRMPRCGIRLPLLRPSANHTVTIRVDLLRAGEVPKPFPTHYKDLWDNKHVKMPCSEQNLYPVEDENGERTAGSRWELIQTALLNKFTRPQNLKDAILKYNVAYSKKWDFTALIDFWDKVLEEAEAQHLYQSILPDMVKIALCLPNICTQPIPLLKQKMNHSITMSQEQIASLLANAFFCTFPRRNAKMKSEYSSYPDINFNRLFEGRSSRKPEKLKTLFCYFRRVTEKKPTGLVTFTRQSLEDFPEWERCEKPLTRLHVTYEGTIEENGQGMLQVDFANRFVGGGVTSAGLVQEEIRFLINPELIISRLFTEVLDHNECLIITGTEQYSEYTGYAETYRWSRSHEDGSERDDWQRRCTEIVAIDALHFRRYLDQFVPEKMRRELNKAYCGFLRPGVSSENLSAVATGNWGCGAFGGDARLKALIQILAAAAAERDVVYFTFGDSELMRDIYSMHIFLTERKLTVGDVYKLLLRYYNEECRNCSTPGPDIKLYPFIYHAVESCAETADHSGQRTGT", "UniProt Q9NX46, whole entry": "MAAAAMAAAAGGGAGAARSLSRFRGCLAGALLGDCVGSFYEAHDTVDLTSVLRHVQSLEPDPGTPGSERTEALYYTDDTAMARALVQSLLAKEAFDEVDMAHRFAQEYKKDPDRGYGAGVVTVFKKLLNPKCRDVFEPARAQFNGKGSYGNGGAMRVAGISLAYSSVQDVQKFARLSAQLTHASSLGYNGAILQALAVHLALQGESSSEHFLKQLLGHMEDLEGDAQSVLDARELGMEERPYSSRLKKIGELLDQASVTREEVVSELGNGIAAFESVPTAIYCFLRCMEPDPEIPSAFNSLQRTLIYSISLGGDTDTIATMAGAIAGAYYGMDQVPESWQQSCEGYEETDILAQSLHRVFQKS", "UniProt P09874, whole entry": "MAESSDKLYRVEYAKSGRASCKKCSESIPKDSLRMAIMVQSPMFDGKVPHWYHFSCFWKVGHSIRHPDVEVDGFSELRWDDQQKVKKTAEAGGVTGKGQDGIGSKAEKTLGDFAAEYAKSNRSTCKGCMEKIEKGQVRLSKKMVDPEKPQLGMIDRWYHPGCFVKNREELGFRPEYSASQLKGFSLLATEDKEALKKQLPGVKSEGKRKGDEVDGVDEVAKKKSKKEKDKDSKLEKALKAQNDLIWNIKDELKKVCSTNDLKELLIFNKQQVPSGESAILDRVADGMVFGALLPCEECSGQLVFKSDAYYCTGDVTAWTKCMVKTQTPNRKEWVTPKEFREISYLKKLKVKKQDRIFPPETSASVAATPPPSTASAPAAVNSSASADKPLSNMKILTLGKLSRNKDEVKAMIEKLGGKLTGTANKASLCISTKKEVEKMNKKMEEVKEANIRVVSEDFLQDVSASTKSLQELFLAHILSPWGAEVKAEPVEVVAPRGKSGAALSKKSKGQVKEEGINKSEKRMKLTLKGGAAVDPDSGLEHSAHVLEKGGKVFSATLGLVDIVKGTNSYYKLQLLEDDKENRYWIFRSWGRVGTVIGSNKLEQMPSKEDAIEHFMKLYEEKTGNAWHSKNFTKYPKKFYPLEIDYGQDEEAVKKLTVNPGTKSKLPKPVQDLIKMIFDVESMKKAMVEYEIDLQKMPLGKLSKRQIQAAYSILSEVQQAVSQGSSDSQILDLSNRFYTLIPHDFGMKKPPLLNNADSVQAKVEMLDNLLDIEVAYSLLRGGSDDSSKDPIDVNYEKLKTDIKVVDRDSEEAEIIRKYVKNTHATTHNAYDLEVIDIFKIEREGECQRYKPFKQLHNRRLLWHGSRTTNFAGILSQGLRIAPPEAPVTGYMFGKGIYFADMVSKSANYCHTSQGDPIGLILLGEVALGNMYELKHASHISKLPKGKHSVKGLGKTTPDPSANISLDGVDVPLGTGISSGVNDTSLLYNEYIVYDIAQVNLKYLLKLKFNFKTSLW"},
  "source": "patent US10239843B2",
  "about": "(CANCER RESEARCH TECHNOLOGY LIMITED, priority 2014, dated 2019)",
  "key": {"PARG in HeLa cell line": {"test_system": "PARG in HeLa cell line", "assay": "PARG cell assay (PAR chain immunofluorescence after MMS)", "type": "cell-based", "settings": "read-out: PARG Cell IC50 Geomean"}, "Human Full Length PARG": {"target": "Human Full Length PARG (Homo sapiens (Human), UniProt Q86W56)", "assay": "PARG enzyme assay (TR-FRET)", "type": "biochemical", "settings": "read-out: PARG Biochem IC50 Geomean"}, "Human Full Length ARH3": {"target": "Human Full Length ARH3 (Homo sapiens (Human), UniProt Q9NX46)", "assay": "ARH3 in vitro selectivity assay (TR-FRET)", "type": "biochemical", "settings": "read-out: ARH3 Biochem IC50"}, "[1]": {"target": "Human High specific Activity PARP1 (Homo sapiens (Human), UniProt P09874)", "assay": "PARP1 in vitro selectivity assay (histone PARylation, luminescence)", "type": "biochemical", "settings": "read-out: PARP1 Biochem IC50"}},
  "note": "pIC50: −log10 of the molar value. Where two headings read alike, the source gives them in different places.",
  "data": [
    {"smiles": "Cc1nc(C)c(Cn2c(=O)n(Cc3cnn(C)c3)c(=O)c3cc(S(=O)(=O)NC4(C#N)CC4)ccc32)s1", "values": [
      {"measurement": "pIC50", "setting": "PARG in HeLa cell line; HeLa cells, MMS 50 μg/mL", "result": 6.63},
      {"measurement": "pIC50", "setting": "Human Full Length PARG", "result": 7.96}
    ]},
    {"smiles": "Cn1cc(Cn2c(=O)c3cc(S(=O)(=O)NC4(C)CC4)ccc3n(CC3CCC(=O)N3)c2=O)cn1", "note": "(centres unmarked)", "values": [
      {"measurement": "pIC50", "setting": "PARG in HeLa cell line; HeLa cells, MMS 50 μg/mL", "result": 5.26},
      {"measurement": "pIC50", "setting": "Human Full Length PARG", "result": 6.90}
    ]},
    {"smiles": "C#C[C@H](C)n1c(=O)n(C)c(=O)c2cc(S(=O)(=O)NC3(C)CC3)ccc21", "values": [
      {"measurement": "pIC50", "setting": "Human Full Length PARG", "result": 5.43}
    ]},
    {"smiles": "CC(C)Oc1nc2ccc(S(=O)(=O)NC3(C)CC3)cc2c(=O)n1Cc1cnn(C)c1", "values": [
      {"measurement": "pIC50", "setting": "PARG in HeLa cell line; HeLa cells, MMS 50 μg/mL", "result": 6.88},
      {"measurement": "pIC50", "setting": "Human Full Length ARH3", "result": "< 3.82"},
      {"measurement": "pIC50", "setting": "[1]", "result": "< 3.82"},
      {"measurement": "pIC50", "setting": "Human Full Length PARG", "result": 6.63}
    ]},
    {"smiles": "Cc1ncc(Cn2c(=O)n(Cc3cnn(C)c3)c(=O)c3cc(S(=O)(=O)NC4(C#N)CC4)ccc32)s1", "values": [
      {"measurement": "pIC50", "setting": "PARG in HeLa cell line; HeLa cells, MMS 50 μg/mL", "result": 6.41},
      {"measurement": "pIC50", "setting": "Human Full Length PARG", "result": 7.70}
    ]},
    {"smiles": "Cc1cc(Cn2c(=O)c3cc(S(=O)(=O)NC4(C)CC4)ccc3n(CCC(C)(C)O)c2=O)on1", "values": [
      {"measurement": "pIC50", "setting": "PARG in HeLa cell line", "result": 6.22},
      {"measurement": "pIC50", "setting": "Human Full Length PARG", "result": 6.61}
    ]},
    {"smiles": "C#C[C@@H](C)n1c(=O)n(C)c(=O)c2cc(S(=O)(=O)NC3(C)CC3)ccc21", "values": [
      {"measurement": "pIC50", "setting": "Human Full Length PARG", "result": 5.55}
    ]}
  ]
}
